Source: patent US12478601B2, “Dietary product devoid of at least two non essential amino acids” (CANCER RESEARCH TECHNOLOGY LIMITED, priority 2016, dated 2025)

Tested on: HCT116, DLD1 and SW480
Assay: Synergy score screen: chemotherapeutic agents in low serine, glycine, cysteine medium, cell counts
Conditions: average synergy score for three colorectal cells lines, drug at 0.01, 0.1 and 1 uM for 48 hours, cysteine (17-23 uM) vs complete medium (100 uM)

## Cetuximab
  SYNERGY SCORE: 7.68
